pIC50: −log10 of the molar value.
What was measured:
[1] = molecular target: Coagulation factor X (Homo sapiens, UniProt P00742); assay: Selectivity interaction (Serine protease panel) EUB0000735a F10
[2] = molecular target: Prothrombin (Homo sapiens, UniProt P00734); assay: Selectivity interaction (Serine protease panel) EUB0000735a F2
[3] = molecular target: Urokinase-type plasminogen activator (Homo sapiens, UniProt P00749); assay: Selectivity interaction (Serine protease panel) EUB0000735a PLAU

Protein sequences, listed by entry. Tags and fused reporters are not part of them. Residues count along the entry.
UniProt P00742, 41-179 limits assumed: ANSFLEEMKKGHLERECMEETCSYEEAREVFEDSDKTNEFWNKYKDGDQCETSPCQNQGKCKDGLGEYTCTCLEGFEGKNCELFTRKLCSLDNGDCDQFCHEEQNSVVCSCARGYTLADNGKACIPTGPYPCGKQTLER
UniProt P00742, 235-488 limits assumed: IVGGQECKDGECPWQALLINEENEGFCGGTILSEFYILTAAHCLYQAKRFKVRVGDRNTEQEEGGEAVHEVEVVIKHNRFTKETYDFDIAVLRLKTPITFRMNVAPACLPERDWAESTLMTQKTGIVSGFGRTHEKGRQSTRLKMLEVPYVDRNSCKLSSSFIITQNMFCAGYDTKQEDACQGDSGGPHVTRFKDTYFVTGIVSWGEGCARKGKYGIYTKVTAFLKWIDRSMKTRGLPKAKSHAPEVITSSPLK

Measured: pIC50

CC(=O)C1=C(C)N(c2cccc(C(F)(F)F)c2)C(=O)N[C@@H]1c1ccc(C#N)nc1 [BAY-678]
< 4.52: all assays above
